Laboratory results reported in US20250345339A1, “DOSES AND REGIMENS OF HER2 INHIBITORS” (IAMBIC THERAPEUTICS, INC., priority 2024, published 2025).
“Also recorded” adds a separate entry of the source.

Assays:
[1] = system: NCI-N87-luciferase gastric cancer cell line; assay: Intracranial NCI-N87-luciferase tumor model
[2] = system: BT-474 breast cancer cell line; assay: BT-474 xenograft tumor growth inhibition; assay type: in vivo, mouse
Procedure: The BT-474 cell line was maintained in vitro as monolayer culture in DMEM supplemented with 10% fetal bovine serum and 0.01 mg/mL BI at 37° C. in an atmosphere of 5% CO2 in air. The tumor cells were routinely sub-cultured after confluence by trypsin-EDTA treatment, not to exceed 4-5 passages. The cells growing in an exponential growth phase were harvested and counted for tumor inoculation. One day before inoculating the BT-474 tumor cells, estradiol benzoate injection was administered by subcutaneous (s.c.) injection at the dose of 40 g/20 L/mouse, twice weekly till the end of the study. Each mouse was inoculated subcutaneously on the right flank (efficacy study and part II of PK study) or orthotopic on 4th right mammary fat pad (part I of PK study) with tumor cells with the single cell suspension (1×107) in 200 μL DMEM and Matrigel mixture (1:1 ratio) without serum for the tumor development.
Tumor size and body weight measurement was conducted twice weekly.

NCI-H2030 = NCI-H2030 tumor model; assay type: in vivo, mouse; conditions: 10 mg/kg IV Q3W for 30 days

Substance: fam-trastuzumab deruxtecan-nxki [T-DXd]
- antitumor effect in intracranial model, in words ([1]; NCI-N87-luc intracranial xenograft): tumor stasis; also recorded: tumor static effect
- tumor regression, in words ([1]; intracranial NCI-N87, 5 mg/kg IV Q3W): no tumor regression
- Tumor Growth Inhibition ([1]; intracranial NCI-N87, 5 mg/kg Q3W IV, Day 5): 47%
- tumor regression (TR) ([2]; 5 mg/kg Q3W IV): T-DXd: 64% TR at 5
- TR compared with Compound 5 ([2]; clinical reference compounds): significantly less TR than Compound 5
- TGI (NCI-H2030): 84%
